Source: PubChem BioAssay AID493005 (National Center for Advancing Translational Sciences (NCATS), 2010)
Only a part is listed here, and it is no random draw. The source made the active and inactive calls. Calls come from the whole dose curve; as a rule, active = well fitted inhibition curve with a large enough effect in the main read-out, with a control signal flat (not every such curve was filed as active); inconclusive = small, poorly fitted or top-dose-only effect, or effect the other way, or a change in a side signal; inactive = no such curve, though single readings can be large or run the other way.

By UniProt entry, the sequences of proteins in these tests, tags left out.
UniProt Q99816, whole entry: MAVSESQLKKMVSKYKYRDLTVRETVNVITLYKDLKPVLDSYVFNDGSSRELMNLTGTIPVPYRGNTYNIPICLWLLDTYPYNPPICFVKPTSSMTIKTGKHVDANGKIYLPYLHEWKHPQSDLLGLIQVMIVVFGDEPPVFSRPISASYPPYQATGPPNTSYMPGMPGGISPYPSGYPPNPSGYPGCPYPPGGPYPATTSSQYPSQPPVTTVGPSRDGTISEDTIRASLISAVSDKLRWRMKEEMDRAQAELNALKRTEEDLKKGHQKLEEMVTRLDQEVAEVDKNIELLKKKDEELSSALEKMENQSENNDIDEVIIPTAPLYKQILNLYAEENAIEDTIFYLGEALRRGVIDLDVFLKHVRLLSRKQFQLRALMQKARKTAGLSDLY

What follows are compounds tested against Tumor susceptibility gene 101 protein (Homo sapiens) (UniProt Q99816) (assay: qHTS Assay for Iinhibitors of HIV-1 Budding by Blocking the Interaction of PTAP/TSG101). Settings: Fluorescence polarization, FITC-PTAP peptide / Tsg101 binding; at 115 µM (top of the series).
Source text: NIH Molecular Libraries Probe Production Network [MLPCN] NIH Chemical Genomics Center [NCGC] MLPCN Grant: 1 R03 MH087464-01A1 PI Name: Dr. Eric Freed, NCI NCGC Assay Overview: Stages of the HIV-1 replication cycle, specifically virus assembly and release, provide underexploited targets for the development of novel antiviral inhibitors. The late stages of HIV-1 replication are mediated by the Gag precursor protein, Pr55Gag. Expression of Pr55Gag is both necessary and sufficient for the production of virus-like particles from Gag-expressing cells. The Gag protein hijacks key host proteins involved in endocytic machinery of the host cell to promote endosomal processing and viral budding. The budding process requires a direct interaction between a […] (PTAP) motif in the p6 domain of Gag and the cellular endosomal sorting protein known as Tsg101. […] A fluorescence anisotropy assay has been developed to quantitatively measure the PTAP-Tsg101 interaction which can be used to screen for inhibitors of this interaction.
NCGC Assay Protocol Summary: Two uL of the Tsg101 binding domain in buffer (10 mM HEPES pH 7.5; 0.15 M NaCl, 0.01% Tween 20; 3 mM EDTA;0.1 mM TCEP) was dispensed into Greiner black MB 1536-well plates (final concentration 10 uM). […] Fluorescent polarization was determined using FITC excitation and polarized emission filters on a Perkin Elmer Viewlux. […]
Note: % of control where 0% means no effect.

Row | SMILES | activity change, negative = inhibition
1 | CCC(=O)N(c1ccccc1)C1(COC)CCN(CCc2cccs2)CC1 | inactive: 1.15%
2 | CCC(=O)N(c1ccccc1)C1(COC)CCN(CCn2nnn(CC)c2=O)CC1 | inactive: -4.2%
